From PubChem
TDP1 cell CPT = DT40-hTDP1 cell growth loss with CPT | Potency, µM (doses to about 46.2 µM), most hits filed as inhibitors | hit rate 12% among 420,000 | AID 686979 | chicken DT40 Tdp1-/-;hTDP1 cells + 20 nM CPT, ATP luminescence, 48 h; further: nearly all actives have a fitted effect of over 55% in size
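Chicken DT40 Tdp1-/- cells complemented with human TDP1, 400 cells/well, exposed to compounds plus 20 nM camptothecin for at least 48 h at 37 C; viability read as ATP content by CellTiter-Glo luminescence.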
uPA surface inh = inhibitors of cell surface uPA generation | cell surface uPA generation assay, qHTS | Potency, µM (highest dose often 38.3 µM), hits mostly inhibitors | hit rate 0.31% among 330,000 | AID 540303; active means well fitted inhibition curve with a large enough effect; inconclusive means small, poorly fitted or top-dose-only effect; inactive means no such curve, though single readings can be large or run the other way; tested in mouse RAW 264.7 cells; further: nearly all actives have a fitted effect of over 55% in size
TDP1 block = inhibitors of human tyrosyl-DNA phosphodiesterase TDP1. Q9NUW8. Potency, µM (series often up to 130 µM), actives largely listed as inhibitors. hit rate 0.28% among 350,000. recombinant TDP1, AlphaScreen DNA substrate cleavage; further: nearly all actives have a fitted effect of over 40% in size
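Tdp1 1 nM final; 15 min RT w/ cpd; substrate 15 nM, 5 min; beads 10 ug/ml, 10 min; AlphaScreen read. Neg ctrl: no enzyme.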
DT40 TDP1 no CPT = qHTS for Inhibitors of human tyrosyl-DNA phosphodiesterase 1 (TDP1): qHTS in cells in absence of CPT; hit rate 15% among 420,000; Potency, µM (highest dose often 46.2 µM), most hits filed as inhibitors; DT40 Tdp1-/- hTDP1 cells, no CPT, ATP luminescence, 48 h; further: nearly all actives have a fitted effect of over 55% in size
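Compound effects on proliferation are scored in DT40 Tdp1-/-;hTDP1 cells in the absence of CPT. ATP levels (CellTiter-Glo luminescence) are recorded after a ≥48 hr, 37 °C incubation.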
miR-21 reporter = raises the signal of a miR-21 reporter; 340,000 tested, under 10 active; HeLa miR-21 FLuc reporter, luciferase, 48 h; Potency, µM (series often up to 38.3 µM); active = well fitted rising curve with a large enough effect; inconclusive = small, poorly fitted or top-dose-only effect; inactive = no such curve, though single readings can be large or run the other way;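 further: miR-21 action dims this reporter so a rising signal means less miR-21 action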
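HeLa cells stably expressing CMV-driven firefly luciferase with a downstream miR-21 binding sequence, endogenously expressing miR-21, were treated with titrations (up to about 40uM final) for 48 hours at 37 degree Celsius. Luciferase luminescence was read after lysis.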
A number is an active result; - = inactive; ? = inconclusive; . = no result given. Shown are actives, neighbours in structure and some others; about 16% of the full set was active somewhere. Unless noted, the call rests on the fitted dose curve; in most records, active means well fitted curve in the direction sought with a large enough effect; inconclusive means small, poorly fitted or top-dose-only effect, or another doubt; inactive means no such curve, though single readings can be large; an effect the other way counts as inactive or inconclusive.

SMILES	TDP1 cell CPT	uPA surface inh	TDP1 block	DT40 TDP1 no CPT	miR-21 reporter
CC(C)(C)NC(=O)C(CCc1ccccc1)n1c(=O)c(-c2cc3ccccc3[nH]2)nc2ccccc21 (stereo unspecified)	15µM	.	.	13µM	.
O=c1c(-c2cccnc2)nc2ccccc2n1C(CCc1ccccc1)c1nc2ccccc2[nH]1 (stereo unspecified)	-	.	.	-	.
c1ccc2c(c1)-c1nc3ccccc3cc1C2N1CCCCC1 (stereo unspecified)	16µM	.	.	16µM	.
CC1(C)c2ccccc2-c2nc3ccccc3cc2C1O (stereo unspecified)	?	-	-	?	-
Cc1cccc(NC(=O)C(C)OC(=O)c2ccccc2NS(=O)(=O)c2cc(C)c(C)c([N+](=O)[O-])c2)c1 (stereo unspecified)	16µM	-	-	?	-
CN(C)Cc1ccccc1-c1ccc2ncnc(N(C)Cc3ccco3)c2c1	?	.	-	?	.
CN(C)Cc1ccccc1-c1nc(N(C)Cc2ccco2)c2ccccc2n1	18µM	.	-	8.2µM	.
CN(C)Cc1ccccc1-c1nccc(N(C)Cc2ccco2)n1	21µM	.	.	?	.
Cc1ccccc1-c1cc(N(C)Cc2ccco2)ncn1	?	.	.	-	.
CCn1c(SCC(=O)OC)nnc1-c1ccccc1	-	-	-	-	-
Cc1cc(C)c(NC(=O)COC(=O)c2c(C)noc2C)c(Cl)c1	-	-	-	-	.
CCCCCN1CN(S(=O)(=O)c2cccs2)c2nc3ccccc3nc21	?	-	.	-	-
COc1cc(OC)cc(-c2nc3nc(C)c(CCC(=O)Nc4cc(F)ccc4F)c(C)n3n2)c1	?	.	-	8.2µM	-
COc1cc(OC)cc(-c2nc3nc(C)c(CCC(=O)Nc4ccc(F)cc4F)c(C)n3n2)c1	?	.	-	13µM	-
COc1ccccc1N/C(N)=N/c1nc(CSc2ccc(C)cc2)cc(=O)[nH]1	18µM	-	-	7.3µM	-
Cc1ccc(SCc2cc(=O)[nH]c(/N=C(\N)Nc3ccccc3Sc3ccccc3)n2)cc1	?	-	-	29µM	-
Cc1ccc(N/C(N)=N/c2nc(CSc3nnc(N)s3)cc(=O)[nH]2)cc1	-	-	-	-	-
COCCn1c(=O)c(-c2cccc(C#N)c2)nc2cnc(Oc3cccc(Cl)c3)nc21	-	.	.	-	.
O=C(Nc1ccc(F)c(Cl)c1)Nc1nnc([C@H]2C[C@H](O)[C@@H](CO)O2)s1	?	.	.	-	.
COc1cc(C#Cc2ccc3cc(CCO)oc(=O)c3c2)cc(OC)c1	?	-	-	18µM	.
O=C(c1ccc2c(c1)N(Cc1ccc(Cl)cc1)C(=O)c1ccccc1S2(=O)=O)N1CCc2ccccc21	5.8µM	.	-	7.3µM	-
O=C(c1ccc2c(c1)N(Cc1ccc(F)cc1)C(=O)c1ccccc1S2(=O)=O)N1CCCC1	23µM	.	-	16µM	-
O=C(c1ccc2c(c1)N(Cc1ccc(Cl)cc1)C(=O)c1ccccc1S2(=O)=O)N1CCCC1	21µM	.	-	26µM	-
CCN1CCN(C(=O)c2ccc3c(c2)N(Cc2ccccc2)C(=O)c2ccccc2S3(=O)=O)CC1	-	-	-	-	-
CCN1CCN(C(=O)c2ccc3c(c2)N(Cc2ccc(Cl)cc2)C(=O)c2ccccc2S3(=O)=O)CC1	?	.	-	23µM	-
SMILES	TDP1 cell CPT	uPA surface inh	TDP1 block	DT40 TDP1 no CPT	miR-21 reporter
CCOC(=O)c1ccccc1OCc1cc(/C=N/NC(=O)c2ccncc2)ccc1OC	?	-	-	?	-
CCn1c(=O)c(C(=O)CN(C)CC(=O)Nc2cccc(F)c2)c(N)n(Cc2ccccc2)c1=O	?	-	-	?	.
Cc1ccc(NC(=O)c2oc3ccc(Br)cc3c2C)cc1S(=O)(=O)N1CCOCC1	?	-	.	-	.
Cc1ccc(S(=O)(=O)NCCC(=O)OCC(=O)Nc2ccccc2Cl)cc1	-	-	-	-	-
COC(=O)c1cc(OC)c(OC)c(OC)c1N	-	-	-	-	-
O=C(CSc1nnc(NC(=O)c2ccccc2F)s1)NCc1ccco1	-	7.9µM	-	?	-
Cc1ccc(-c2nnc(C3CCN(S(=O)(=O)c4ccc(C)c(C)c4)CC3)o2)cc1	?	.	-	26µM	-
COc1ccc(-c2nnc(C3CCN(S(=O)(=O)c4ccccc4)CC3)o2)cc1	?	-	.	?	-
CC(=O)Nc1ccc(S(=O)(=O)N2CCC(c3nnc(-c4ccc(C)cc4)o3)CC2)cc1	?	-	-	21µM	-
Cc1cccc(-c2nnc(C3CCN(S(=O)(=O)c4cccc(Cl)c4)CC3)o2)c1	3.7µM	.	-	2.9µM	-
COc1ccc(CC(NC(C)=O)C(=O)NC2CCN(C(=O)c3cccc(Cl)c3)CC2)cc1OC (stereo unspecified)	-	-	-	-	-
O=C(Cc1ccc(Cl)cc1)NCC(c1cccs1)S(=O)(=O)c1ccccc1 (stereo unspecified)	?	.	-	?	-
Cc1cc(S(=O)(=O)C(CNC(=O)COc2ccc(Cl)cc2)c2cccs2)ccc1F (stereo unspecified)	2.6µM	.	-	?	?
O=C(NCCc1ccc(Cl)cc1)C(=O)NCC(c1ccco1)S(=O)(=O)c1ccccc1 (stereo unspecified)	-	.	-	-	-
O=C(COc1ccccc1)NCC(c1cccs1)S(=O)(=O)c1ccc(Cl)cc1 (stereo unspecified)	?	.	.	23µM	-
O=C(COc1ccc(Cl)cc1)NCC(c1ccco1)S(=O)(=O)c1ccccc1 (stereo unspecified)	?	.	-	21µM	-
Cc1ccc2nc(COC(=O)c3cccnc3Cl)cc(=O)n2c1	-	.	.	-	.
COCCC(=O)N1CCOCC1c1cc(C(=O)Nc2ccccc2)no1 (stereo unspecified)	-	.	.	-	.
COc1ccc(-c2nc(CSCC(=O)NCCc3ccccc3)c(C)o2)cc1	?	.	-	?	-
NCCNS(=O)(=O)c1cccc2cnccc12	27µM	.	-	18µM	.
CCOc1ccccc1C(=O)OCC(=O)Nc1nnc(-c2ccccc2)o1	?	-	-	16µM	.
CCOc1ccccc1C(=O)NC(C(=O)OCC(=O)Nc1nnc(-c2ccccc2)o1)C(C)C (stereo unspecified)	-	-	-	-	-
COc1cccc(CN2CCNC(=O)C2CC(=O)N(C)CCC2CCOCC2)c1 (stereo unspecified)	-	-	-	-	-
O=C(COc1ccc([N+](=O)[O-])cc1)Nc1ccc2c(c1)OCO2	-	-	-	?	-
CCOC(=O)c1sc(N(Cc2ccccc2)C(=O)COC(=O)c2ccc(O)cc2)nc1C	9.2µM	-	-	5.8µM	-
CCOC(=O)c1sc(N(Cc2ccccc2)C(=O)COC(=O)c2ccccc2O)nc1C	-	-	-	?	-
CCOC(=O)c1sc(N(Cc2ccccc2)C(=O)CSc2ncn[nH]2)nc1C	?	-	-	?	-
